# High-throughput results as filed in PubChem.
# In the library only some 1.7% were active in any assay of this set; here they are far more common.
# miR-21 FLuc: raises the signal of a miR-21 reporter | AID 2288 | 340,000 tested, under 10 active | Potency, µM (series often up to 38.3 µM), without a hit: at the highest dose reporter change, positive = more light | HeLa miR-21 FLuc reporter, luciferase, 48 h; active = well fitted rising curve with a large enough effect; inconclusive = small, poorly fitted or top-dose-only effect; inactive = no such curve, though single readings can be large or run the other way;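 further: % of control where 0% means no effect; miR-21 action dims this reporter so a rising signal means less miR-21 action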
#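 Luminescence from a firefly luciferase reporter carrying a miR-21 binding site downstream, stably expressed under a CMV promoter in HeLa cells that make miR-21 endogenously, reports miRNA modulation after 48 h compound exposure up to approximately 40uM final.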
# GLP-1R inv ag: GLP-1 receptor (human) inverse agonism. 1.6% of 410,000 active. AID 624417. Potency, µM (highest dose often 38.3 µM), inactives show at the highest dose activity change, negative = inhibition, actives largely listed as inhibitors. P43220. HEK293 GLP-1R CRE-luciferase, luminescence, 24 h; GLP-1R form is constitutively active; further: potency means the concentration at half of the fitted maximal effect; on the % scale 0 is the no-effect control and ±100 the full control effect; nearly all actives have a fitted effect of over 55% in size
#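 GLP-1R inverse agonism mode: basal reporter luminescence in engineered HEK293 cells measured after one day of compound exposure at 37 deg C, with a 12 min room-temperature detection step.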
# Pin1 inhibitor: blocks the human prolyl isomerase Pin1 | Q13526 | 0.009% of 390,000 active | Potency, µM (series often up to 115 µM), without a hit: at the top dose activity, negative = inhibition, actives largely listed as inhibitors | Pin1 FP peptide displacement, HiFluor488, 10 min; active means well fitted inhibition curve with a large enough effect in the polarisation, with a control signal flat, not every such curve was filed as active; inconclusive means small, poorly fitted or top-dose-only effect, or effect the other way, or a change in a side signal; inactive means no such curve, though single readings can be large or run the other way; the % refers to the polarisation; further: potency means the concentration at half of the fitted maximal effect; on the % scale 0 is the no-effect control and ±100 the full control effect
# PTHR1 agonist: activates the human parathyroid hormone receptor PTHR1; Q03431; HEK293 GP2 PTHR1 cells, GloSensor cAMP luminescence, 1 h; Potency, µM (highest dose often 115 µM), inactives show at the highest dose activation, actives largely listed as activators; 0.075% of 410,000 active; further: potency means the concentration at half of the fitted maximal effect; nearly all actives have a fitted effect of over 55% in size
#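 HEK-293-derived GP2 cells expressing PTHR1 and a GloSensor cAMP reporter, 3,000/well, plated overnight, given luciferin plus IBMX (each 0.5 mM as added) for 1 h at 37 °C, then compound for 1 h at 37 °C. Luminescence was read after 15 min at room temperature.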
# GLP1R ag: activates the human GLP-1 receptor. HEK293 GLP-1R CRE-luciferase, luminescence, 4-6 h; cells express a hypersensitive GLP-1R form. 0.007% of 380,000 active. Potency, µM (titrated, usually from 45.6 µM), for the others: top-dose activation, usual class: activators. P43220; further: potency means the concentration at half of the fitted maximal effect; % of control where 0% means no effect
# HEK293 tox: cytotoxicity counter-screen for GLP-1 receptor inverse agonists; HEK293 cAMP-luciferase reporter cells, luminescence, 24 h; Potency, µM (titrated, usually from 38.3 µM), for the others: at the highest dose activity change, negative = inhibition, actives largely listed as inhibitors; 0.13% of 410,000 active;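 further: loss of luciferase light is scored as toxicity; potency means the concentration at half of the fitted maximal effect; on the % scale 0 is the no-effect control and ±100 the full control effect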
#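 Quantitative HTS format, 1536 wells, 200 cells/uL seeded. Compounds: 23 nL, 24 h, 37 °C. Detection: luciferase reagent, luminescence at 12 min RT; decreased signal taken as cytotoxic.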
# Numbers without * were called inactive; i = inactive; ? = inconclusive; . = no result; [ ] = dose if it differs, or a comment. Unless noted, the call rests on the fitted dose curve; in most records, active means well fitted curve in the direction sought with a large enough effect; inconclusive means small, poorly fitted or top-dose-only effect, or another doubt; inactive means no such curve, though single readings can be large; an effect the other way counts as inactive or inconclusive.
[1] C=C(C)CNC(=S)N/N=C/C1=CCC2CC1C2(C)C (stereo not given)
[2] CC(C)NC(=S)N/N=C/C1=CCC2CC1C2(C)C (stereo not given)
[3] Cc1ccc(C2(c3noc(CN4CCC(c5ccncc5)CC4)n3)CCCC2)cc1
[4] Cc1ccc(C2(c3noc(CN(C)CC4CCCCO4)n3)CCCC2)cc1 (stereo not given)
[5] Cc1ccc(S(=O)(=O)N2CCN(c3nc(-c4ncccn4)nc4ccccc34)CC2)cc1
[6] CCC(c1nnnn1CCc1ccccc1)N(Cc1ccco1)Cc1cc2c(C)ccc(C)c2[nH]c1=O (stereo not given)

screen / no.,1,2,3,4,5,6
miR-21 FLuc,-2%,17%,21%,-1%,.,23%
GLP-1R inv ag,5µM*,8.9µM*,4µM*,?,.,11µM*
Pin1 inhibitor,-2%,-1%,1%,-2%,-2%,9%
PTHR1 agonist,i,-27%,-32%,-44%,.,i
GLP1R ag,0%,17%,?,2%,.,1%
HEK293 tox,?,?,-19%,-2%,.,-25%

[7] CCC(c1nnnn1CCc1ccccc1)N(Cc1ccco1)Cc1cc2cc(C)cc(C)c2[nH]c1=O (stereo not given)
[8] CCSc1nnc(NC(=O)C2CCN(C(=O)c3ccco3)CC2)s1
[9] CCNC(=S)N1CCC(Cc2ccccc2)CC1
[10] CCCNC(=S)N1CCC(Cc2ccccc2)CC1
[11] COc1ccc(CNC(=O)COC(=O)c2c(-c3c(F)cccc3Cl)noc2C)cc1OC
[12] Cc1nc(C(=O)NNC(=O)c2c(-c3c(Cl)cccc3Cl)noc2C)cs1

screen / no.,7,8,9,10,11,12
miR-21 FLuc,0%,.,18%,9%,-10%,29%
GLP-1R inv ag,?,.,?,7.1µM*,0%,5.6µM*
Pin1 inhibitor,20%,4%,-3%,1%,14%,-4%
PTHR1 agonist,-12%[57.5 µM],.,-5%,6%,i,i
GLP1R ag,-1%,.,0%,3%,1%,1%
HEK293 tox,-13%,.,-4%,?,-2%,8.9µM*

[13] Cc1ccc(NC(=O)c2c(-c3c(F)cccc3Cl)noc2C)cc1F
[14] Cc1cc(C(=O)NNC(=O)c2c(-c3c(Cl)cccc3Cl)noc2C)no1
[15] Cc1cc(NC(=O)c2c(-c3c(F)cccc3Cl)noc2C)no1
[16] Cc1onc(-c2c(F)cccc2Cl)c1C(=O)OCC(=O)NC(=O)NCC(C)C
[17] CCC(Oc1ccc(F)cc1)C(=O)Nc1nc(-c2ccc(F)cc2)ns1 (stereo not given)
[18] CCC(Oc1ccc(F)cc1)C(=O)Nc1cc(-c2ccc(C)cc2)no1 (stereo not given)

screen / no.,13,14,15,16,17,18
miR-21 FLuc,0%,0%,13%,6%,?,-1%
GLP-1R inv ag,4µM*,-11%,?,13µM*,10µM*,?
Pin1 inhibitor,-7%,-1%,-10%,-12%,-3%,6%
PTHR1 agonist,-13%,i,-33%,-6%,-48%,-12%
GLP1R ag,4%,-9%,0%,10%,.,.
HEK293 tox,-6%,-14%,-1%,-3%,-24%,4%

[19] CC(C)NC(=O)N1CC(c2ccccc2)C(c2ccc(Cl)cc2)=N1 (stereo not given)
[20] CC(=O)N1CC(c2ccccc2)C(c2ccc(Cl)cc2)=N1 (stereo not given)
[21] Cc1cc(C)cc(NC(=O)C(=O)NCC(c2cccnc2)N2CCc3ccccc3C2)c1 (stereo not given)
[22] CCN(CC)CCCNc1oc(-c2ccc(OC)c(OC)c2)nc1C#N
[23] CN(C)CCCNc1oc(-c2cccc(Cl)c2)nc1C#N
[24] CC1CCc2c(sc(NC(=O)c3cccs3)c2C(=O)O)C1 (stereo not given)

screen / no.,19,20,21,22,23,24
miR-21 FLuc,5%,-7%,1%,-15%,-25%,12%
GLP-1R inv ag,4µM*,?,10%,?,6.3µM*,-30%
Pin1 inhibitor,?,2%,-1%,-1%,-1%,1%
PTHR1 agonist,-21%,i,-7%,-6%[57.5 µM],-5%[57.5 µM],-25%
GLP1R ag,16%,30%,.,-2%,-2%,0%
HEK293 tox,12%,-5%,-2%,-9%,-2%,-17%

[25] CC(C)(C)C1CCc2c(sc(NC(=O)c3cccs3)c2C(=O)N2CCCCC2)C1 (stereo not given)
[26] CCOC(=O)c1c(-c2ccccc2)oc2ccc(OC(C)C(=O)O)cc12 (stereo not given)
[27] CCOC(=O)c1c(-c2ccccc2)oc2ccc(OCC(O)CN(C)C)cc12 (stereo not given)
[28] CC(=O)NC1=C(Nc2ccc(N(C)C)cc2)C(=O)c2ccccc2C1=O
[29] CN(Cc1ccccc1)C(=O)c1c[nH]c2ccc(S(=O)(=O)Nc3ccccc3F)cc2c1=O
[30] CCCCOc1ccccc1C1CC(=O)Nc2ccc3ccccc3c21 (stereo not given)

screen / no.,25,26,27,28,29,30
miR-21 FLuc,11%,8%,?,9%,1%,27%
GLP-1R inv ag,3.5µM*,16%,2.8µM*,4µM*,-31%,?
Pin1 inhibitor,0%,19%,5%,5%,2%,7%
PTHR1 agonist,i,i,i,i,22%,-41%
GLP1R ag,-15%,5%,5%,-1%,.,.
HEK293 tox,0%,7%,?,?,-6%,-23%

# Structures listed so far with two or more sulfur atoms, in the order listed:
[8] CCSc1nnc(NC(=O)C2CCN(C(=O)c3ccco3)CC2)s1
[24] CC1CCc2c(sc(NC(=O)c3cccs3)c2C(=O)O)C1 (stereo not given)
[25] CC(C)(C)C1CCc2c(sc(NC(=O)c3cccs3)c2C(=O)N2CCCCC2)C1 (stereo not given)

screen / no.,8,24,25
miR-21 FLuc,.,12%,11%
GLP-1R inv ag,.,-30%,3.5µM*
Pin1 inhibitor,4%,1%,0%
PTHR1 agonist,.,-25%,i
GLP1R ag,.,0%,-15%
HEK293 tox,.,-17%,0%

# Later entries:
[31] C=CCNC(=S)Nc1cc(C)ccn1
[32] Cc1ccnc(NC(=S)NC(=O)/C=C/c2ccccc2)c1
[33] Cc1cccc(C)c1Nc1sc(C(=O)c2ccccc2)c(N)c1C(=O)Nc1ccc(F)cc1
[34] CNC(=O)C(=O)NCC1OCCN1S(=O)(=O)c1ccc(C)cc1 (stereo not given)
[35] Cc1ccc(S(=O)(=O)N2CCOC2C(Cl)(Cl)Cl)cc1 (stereo not given)
[36] N#Cc1nc(Nc2cc(Cl)cc(Cl)c2)nc(NC2CCCC2)n1

screen / no.,31,32,33,34,35,36
miR-21 FLuc,-2%,-33%,15%,2%,4%,.
GLP-1R inv ag,10µM*,17%,11µM*,4%,10µM*,.
Pin1 inhibitor,3%,0%,-6%,-10%,-7%,8%
PTHR1 agonist,-7%,-14%,-35%,-16%,-10%,.
GLP1R ag,6%,-3%,.,-28%,1%,.
HEK293 tox,?,-19%,-22%,6%,3%,.

[37] Fc1cccc(Cn2cc(C(=S)N3CCCCC3)c3ccccc32)c1
[38] Fc1cccc(Cn2cc(C(=S)N3CCOCC3)c3ccccc32)c1
[39] O=C(NC1CCCC1)C(c1ccccc1F)N(C(=O)c1ccco1)C1CCCC1 (stereo not given)
[40] O=C(NC1CCCC1)C(c1ccccc1)N(C(=O)c1ccco1)C1CCCC1 (stereo not given)
[41] COc1ccc(-c2nnc3ccc(SC(C)C)nn23)cc1OC
[42] COc1ccc(/C=N/NC(=O)c2ccc3ccccc3c2)cc1OS(=O)(=O)c1ccc(NC(C)=O)cc1

screen / no.,37,38,39,40,41,42
miR-21 FLuc,-2%,-4%,4%,-1%,.,27%
GLP-1R inv ag,7.9µM*,?,?,13µM*,.,-1%
Pin1 inhibitor,2%,-3%,-18%,1%,11%,21%
PTHR1 agonist,0%,i,i,-1%,.,i
GLP1R ag,1%,7%,-9%,5%,.,-1%
HEK293 tox,4%,5%,-16%,?,.,2.2µM*
